Key:
MIA PaCa2 cells = experiment: MTT assay, MIA PaCa2 cells; assay type: cell-based, human; settings: MIA PaCa-2 cells
Description: Cell lines and culture: Human pancreatic cancer cell line MIA PaCa2 cells and primary umbilical vein endothelial cells (HUVEC) were purchased from American Type Culture Collection (ATCC). Human pancreatic cancer cell line PANC1 cells were kindly provided by Dr. Zhengrong Cui (College of Pharmacy, The University of Texas at Austin). Mouse mT4-2D pancreatic cancer cell line, which is derived from a Kras^+/LSL-G12DTp53^+/LSL-R172HPdx1-Cre transgenic model of pancreatic cancer, was kindly provided by Dr. Kyaw Aung (Livestrong Cancer Institutes, Dell Medical School, The University of Texas at Austin). MIA PaCa2 cells, PANC1, and mT4-2D cells were maintained in Dulbecco's […] with high glucose (Corning). Cell culture medium was supplemented with 10% fetal bovine serum (Gibco) and 100 U/mL penicillin-streptomycin (Gibco). HUVEC cells were maintained according to protocol provided by ATCC. All cells were maintained at 37° C. in a humidified atmosphere with 5% carbon dioxide.
MTT Assay: Cells were seeded in 96 well plates at a density of 5,000 cells/well. […] After the formazan crystals were completely dissolved, the absorbance at 570 nm was read by a plate reader (Infinite®200 Pro, Tecan). Cell survival rate was calculated as follows: […]
The IC50 (half maximal inhibitory concentration) was calculated using GraphPad Prism 8.

[1] = Plasma pharmacokinetics of free and total MMAE in MIA PaCa2 tumor-bearing mice; assay type: in vivo; settings: for plasma concentration of free MMAE: 10 min after single intravenous dose, 0.5 mg/kg MMAE equivalent; for AUC 0-∞ / AUMC 0-∞ / Cl / MRT / AUC 0-t: total MMAE in plasma, 0.5 mg/kg i.v.; for AUC 0-t: time 0 to 168 hours
Procedure: Quantification of MMAE by LC-MS: An Agilent 1260 Infinity liquid chromatography system (G1312B) with an Agilent 6530 Q-TOF mass spectrometer was used to detect the drug MMAE. 5 μL of sample was injected into an Eclipse Plus C18 column (50×2.1 mm, 5 μm) followed by a gradient elution at 0.7 mL/min. […] Electrospray ionization source was used in positive mode. To derive standard curves for MMAE, drug standards were spiked into blank matrix along with internal standard. Samples were then prepared for LC-MS analysis. MMAE was monitored at m/z 740 [M+Na]+, 719 [M+H]+, 371 [M+Na+1-1]^2+ and 360 [M+2H]^2±. Deuterated (D8) MMAE as internal standard was monitored at m/z 748 [M+Na]+, 727 [M+H]+, 375 [M+Na+1-1]^2+ and 364 [M+2H]^2±. The peak area of each drug standard was derived by the peak area of internal standard. The peak area ratios were then plotted as a function of standard concentrations and data points were fitted using linear regression (GraphPad). MMAE concentrations in test samples were quantified using the peak area ratio between MMAE and D8-MMAE and calculated using the standard curves.
Pharmacokinetics and tissue distribution: Thirty-six mice bearing MIA PaCa2 tumors were equally divided into 4 groups. […] All treatment arms were dosed with an equivalent amount of MMAE at 0.5 mg/kg. At 10 min, 24 h, 48 h, 72 h, 96 h and 168 h post-administration, blood samples were collected from 3 mice in each group through tail vein. Plasma was separated immediately using BD microtainer. At 24 h, 72 h and 168 h after administration, 3 mice from each group were euthanized to collect liver, kidney, and tumor tissue samples. Plasma and tissue samples were stored at −80° C. until further analysis.
To determine the amount of free MMAE in plasma samples, 1 μL D8-MMAE (250 ng/mL) internal control was added into 10 μL plasma samples and then mixed with 89 μL acetonitrile. The mixture was thoroughly mixed and centrifuged (12,000 rpm, 20 min, 4° C.). The supernatant was collected for LC-MS quantification. To determine free MMAE in mouse tissues, weighed tissues were homogenized with ice-cold PBS containing protease inhibitors (cOmplete™ ULTRA Tablets, Roche) using a tissue homogenizer (Fisher Scientific) to a final concentration of 600 mg/mL. The homogenized suspension was centrifuged at 12,000 rpm for 20 min at 4° C. As an internal control, 1 μL D8-MMAE (250 ng/mL) was added into 20 μL of the supernatant and then mixed with 79 μL acetonitrile. After the mixture was mixed and centrifuged, the supernatant was collected for LC-MS for quantification.
Briefly, freshly prepared papain (Sigma-Aldrich) was added to plasma and tissue samples at a final concentration of 2 mg/mL, and the mixtures were incubated at 40° C. for 16 hours. The resulting samples were treated as method described above for LC-MS quantification.

MIA PaCa2 xenografts = experiment: In vivo antitumor efficacy, MIA PaCa2 xenografts; parameters: species or system mice; settings: for median survival of tumor-bearing mice: 0.5 mg/kg equivalent to MMAE
Procedure: Tumor-bearing mouse models: Eight to ten week old athymic female NCr nude mice and C57BL/6 mice (Taconic) were used to establish xenograft mouse model and syngeneic mouse model, respectively. MIA PaCa2 and mT4-2D cells were harvested from culture and resuspended in serum free cell culture media at 4×10^7 cells/mL and 1×10^7 cells/mL, respectively. The cell suspension was then gently mixed with equal volume of Matrigel® (Corning). Subsequently, 100 μL of each mixed cell suspension (MIA PaCa2 and mT4-2D) was subcutaneously inoculated into both flanks of NCr nude mice and C57BL/6 mice, respectively. After the tumors were palpable, tumor volumes were measured two times a week. The tumor volume was calculated as (1/2×length×[…]).
In vivo antitumor efficacy: Mice bearing MIA PaCa2 xenografts and syngeneic mT4-2D C57BL/6 mice were randomized when the tumor sizes were ˜150 mm^3, respectively. […] PBS and albumin vehicle controls were also administered. […] Tumor sizes were measured by a digital caliper twice a week starting from Day 0. Mice were euthanized when either tumor volume exceeded 1500 mm^3.
Statistical analysis: All of the experiments were repeated at least three times. Statistical significance was calculated using two-way ANOVA followed by Tukey's test. Survival curve was analyzed by log-rank test using GraphPad Prism 8 software.

For “ALDC1: albumin-drug conjugate: MMAE via mc-vc-pab linker on Cys34 of recombinant human serum albumin, drug to albumin ratio of 1”, the “IC50 (in words), higher than free MMAE” value (MIA PaCa2 cells) was “μM toxicity”, the “AUC of total MMAE in plasma as % of the ALDC3 group” value ([1]; 0.5 mg/kg single dose) was 200% and the “plasma concentration of free MMAE” value [1] was 49.99 ± 3.88 ng/mL. For the same substance, the “AUC 0-∞” value [1] was 225.6026 µg·h/mL, the “AUMC 0-∞” value [1] was 1819599.5 ng/ml*h^2 and the Cl [1] was 2.2163E−06 (mg/kg)/(ng/ml)/h. The MRT [1] was 8.06 h, the “AUC 0-t” value [1] was 224.9654 µg·h/mL and the “tumor growth” value (MIA PaCa2 xenografts; 0.5 mg/kg MMAE equivalent, every 4 days, 4 doses) was “significantly delayed”. For the same substance, the “median survival of tumor-bearing mice” value (MIA PaCa2 xenografts; every 4 days, 4 doses) was 114 days, the “tumor growth compared to the MMAE-MAL treatment arm” value (MIA PaCa2 xenografts; 0.5 mg/kg, at 60 days) was “significantly retarded tumor growth” and the “tumors eradicated completely (mice)” value (MIA PaCa2 xenografts; 0.9 mg/kg (ALDC1-H), after 4 doses) was 5 of the 6. For the same substance, the survival (MIA PaCa2 xenografts; 0.9 mg/kg, at 157 days) was 100% and the “complete eradication of the tumors in the treatment group” value (MIA PaCa2 xenografts; maximum tolerated dose of ALDC1) was 83.33%.

With “ALDC3: albumin-drug conjugate of MMAE drug-linker on TCEP-reduced recombinant serum albumin, drug to albumin ratio of 3” the “IC50 (in words), higher than free MMAE” value (MIA PaCa2 cells) was “μM toxicity”, the “plasma concentration of free MMAE” value [1] was 121.74 ± 13.74 ng/mL and the “AUC 0-∞” value [1] was 111.0014 µg·h/mL. The “AUMC 0-∞” value [1] was 728096.2 ng/ml*h^2, the Cl [1] was 4.5E−06 (mg/kg)/(ng/ml)/h and the MRT [1] was 6.55 h. The “AUC 0-t” value [1] was 110.3437 µg·h/mL and the “median survival of tumor-bearing mice” value (MIA PaCa2 xenografts; every 4 days, 4 doses) was 53 days.
